Measurements: patent publication US20260315612A1, “Topoisomerase Inhibitors, Methods of Making, and Methods of Use Thereof” (NJ Bio, Inc., priority 2023, published 2026)

System: SKBR-3 cell line (human breast cancer)
Test: Cytotoxicity Assay (Cell titer glo, 72 h), SKBR-3
Type: cell-based
Conditions: ratio of payload IC50 to DXD control IC50
Method: Day 1: 2,000 cells/well were plated and incubated at 37° C. overnight.
Day 2: Payload/ADC/vehicle control dilutions were made in respective media and added to cells. Volume added: 50 uL to each well. Starting treatment concentration was 1 mM for free payloads/1 μM for ADC's/10% for vehicle control and then diluted 10-fold down for a total of 11 treatment dilutions. Each concentration was analyzed in triplicates. Media-only wells were used as a control to calculate percent viability.
Day 5: Cell titer glow reagent (volume: 50 uL) was added to each well, the plate was shaken for 5 mins and the luminescence was recorded. Drug Treatment Time: 72 hours. Data Analysis: Percent viability was calculated by dividing the luminescence signal obtained for each treated well by the untreated well (media-only control) and multiplying by 100. Data was next transformed using X=Log (x) and then analyzed with nonlinear regression (curve fit), Dose Response inhibition−log (inhibitor) vs response (3 parameters) using PRISM software to determine the IC50 value.

CC[C@@]1(O)C(=O)OCc2c1cc1n(c2=O)Cc2c-1nc1cc(F)c(C)cc1c2Cn1cc(-c2cccc(N)n2)nn1 [Payload 48]
Normalized IC50 (PL IC50/DXD IC50): 6.44
